# AlphaSeq binding of Ab-14 heavy chain variants to a spike HR2 peptide

From the AlphaSeq antibody data of Li et al. 2023 (doi:10.1038/s41467-023-39022-2), copy in the FLAb collection.

Target peptide (SARS-CoV-2 spike, HR2 region): PDVDLGDISGINAS

Parent scFv Ab-14: VH joined to VL by a 15-residue (Gly4Ser)3 linker. Changes lie in the heavy chain CDRs alone.
VH: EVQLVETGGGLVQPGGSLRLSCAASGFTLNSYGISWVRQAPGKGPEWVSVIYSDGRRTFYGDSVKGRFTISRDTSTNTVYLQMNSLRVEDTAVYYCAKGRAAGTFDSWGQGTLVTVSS
VL: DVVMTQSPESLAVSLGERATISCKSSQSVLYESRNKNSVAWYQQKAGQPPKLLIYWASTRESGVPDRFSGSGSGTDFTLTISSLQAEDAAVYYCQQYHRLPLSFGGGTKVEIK

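Phage display of a naive human antibody library on the peptide gave the parent. The variants were designed computationally from a first round of random CDR variants and then made and measured. Several design methods are mixed in this list. AlphaSeq pools MATa yeast showing the antibodies with MATalpha yeast showing the peptide. Binding brings cells together so that they mate, and sequencing counts the barcode pairs among the diploids. The ratio of observed to expected reads was calibrated, replicate by replicate, on BCL2-family standards whose Kd was known from biolayer interferometry. There are six technical replicates.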

Variants are written as CDR1, CDR2 and CDR3 of the heavy chain (limits as in the source). Parent: GFTLNSYGIS, VIYSDGRRTFYGDSVK, GRAAGTFDS. This list holds designs with more than six substitutions. Scale: log10 of Kd in nM, estimated from mating counts; low values are strong binders. The mean shown is taken over the replicates in which the pair was detected. "nd" means that the variant was in the library but no mating with the target was seen in that replicate; the authors take this as a sign of poor binding, and no number exists. The list is sorted by this average, lowest first, undetected variants last.

For GFDLNEYGIS / VIYADGVRTAYADSVK / GNAAGTFDV, the assay gave -1.27, -0.63, -0.64, -1.39, -1.18, 0.00 (mean -0.85; controls 0 of 18).
For GFDLNEYGIS / VIYADGQRTFYSDSVK / GEIAGTFDS, the assay gave -0.72, -0.77, -0.94, -0.98, -1.00, -0.62 (mean -0.84; controls 0 of 18).
For GFDLNEYGIS / VIYADGMRTAYADNVK / GEVAGTFDT, the assay gave -0.63, -0.46, -0.59, -0.56, -0.87, -0.44 (mean -0.59; controls 0 of 18).
For GFDLNEYGIS / VIYADGLRTAYSDSVK / GNNAGTFDV, the assay gave -0.54, -0.75, -0.46, -0.53, -0.49, -0.65 (mean -0.57; controls 0 of 18).
For GFDLNEYGIS / VIYADGRRTAYTDNVK / GQNAGTFDV, the assay gave -0.50, -0.60, -0.67, -0.82, -0.51, -0.30 (mean -0.57; controls 0 of 18).
For GFDLDEYGIS / VIYADGMRTAYADSVK / GHVAGTFDV, the assay gave -0.43, -0.57, -0.56, -0.73, -0.51, -0.30 (mean -0.52; controls 0 of 18).
For GFDLNEYGIS / VIYADGKRTYYADSVK / GNVAGTFDQ, the assay gave -0.06, -0.66, -0.53, -0.58, -0.51, -0.48 (mean -0.47; controls 0 of 18).
For GFDLNEYGIS / VIYADGMRTSYADSVK / GQNAGTFDQ, the assay gave 0.37, nd, -0.12, -0.83, -1.13, -0.30 (mean -0.40; controls 0 of 18).
For GFDLNEYGIS / VIYADGMRTAYTDSVK / GENAGTFDI, the assay gave -0.44, -0.12, -0.37, -0.50, -0.22, -0.33 (mean -0.33; controls 0 of 18).
For GFDLNEYGIS / VIYADGVRTAYADSVK / GQNAGTFDM, the assay gave -0.31, -0.04, -0.39, -0.60, -0.55, -0.05 (mean -0.32; controls 1 of 18).
For GFDLNEYGIS / VIYADGKRTFYADSVK / GQAAGTFDA, the assay gave -0.04, -0.65, 0.22, -0.22, -0.61, -0.63 (mean -0.32; controls 0 of 18).
For GFDLDEYGIS / VIYADGMRTAYTDSVK / GNTAGTFDL, the assay gave -0.53, -0.35, 0.06, -0.66, -0.43, 0.08 (mean -0.30; controls 0 of 18).
For GFDLNEYGIS / VIYADGMRTSYADDVK / GNTAGTFDV, the assay gave 0.09, -0.04, -0.33, -0.59, -0.15, -0.09 (mean -0.18; controls 0 of 18).
For GFDLDEYGIS / VIYADGMRTFYADSVK / GNEAGTFDV, the assay gave -0.24, -0.12, -0.05, -0.27, -0.16, -0.25 (mean -0.18; controls 0 of 18).
For GFDLNEYGIS / VIYADGRRTFYTDSVK / GEFAGTFDK, the assay gave 0.05, -0.31, -0.29, -0.32, -0.24, 0.04 (mean -0.18; controls 0 of 18).
For GFDLNEYGIS / VIYADGKRTVYADSVK / GNVAGTFDI, the assay gave -0.18, -0.01, 0.07, -0.20, -0.43, 0.02 (mean -0.12; controls 3 of 18).
For GFDLDEYGIS / VIYADGMRTVYADSVK / GENAGTFDL, the assay gave 0.04, -0.41, -0.27, 0.06, 0.12, -0.16 (mean -0.10; controls 0 of 18).
For GFDLEDYGIS / VIYADGVRTAYADSVK / GENAGTFDV, the assay gave 0.45, 1.79, 0.09, 0.09, 0.27, 0.16 (mean 0.47; controls 0 of 18).
For GFDLDEYGIS / VIYADGRRTFYIDSVK / GENAGTFDV, the assay gave nd, 1.33, 1.13, 1.69, 0.27, 1.56 (mean 1.19; controls 0 of 18).
For GFDINEYGIS / VIYADGKKTAFANSFK / GEWAGTFDD, the assay gave 1.65, nd, nd, nd, 2.02, 2.75 (mean 2.14; controls 0 of 18).
For GYDIEQYGIS / VIYADGMRTVYHDSVK / GHEGDTFYV, the assay gave nd, nd, nd, nd, nd, 2.71 (controls 2 of 18).
For GFSINEYGIS / VIYADGMRTAYSESVK / GTIDEDFNT, the assay gave nd, nd, nd, nd, nd, nd (controls 0 of 18).
For GFDINEYGIS / VMYADGSRVVYRDNVK / GFWGGTFDM, the assay gave nd, nd, nd, nd, nd, nd (controls 0 of 18).
For GKDIEEYGIS / VIYADGMRQAYLDKVK / GNNVGSGSF, the assay gave nd, nd, nd, nd, nd, nd (controls 1 of 18).
For GFDLEEYGVN / VIYADGQRTVYTDAVK / GEVSAGFLI, the assay gave nd, nd, nd, nd, nd, nd (controls 2 of 18).
For LFTLNDEFIS / VIYSDGRKTFYGCSVK / GRAALTFIS, the assay gave nd, nd, nd, nd, nd, nd (controls 0 of 18).
For GFNLDEYGIS / VIYADGIRTAYKDKVK / GDDILLGWF, the assay gave nd, nd, nd, nd, nd, nd (controls 0 of 18).
For GKSLDEYGIS / VIYADGLRTQYSNKVK / GLEGFAFDQ, the assay gave nd, nd, nd, nd, nd, nd (controls 2 of 18).
For GFTLIEYGIS / VIYSDGYRTFYGDSVK / GRAAVTHLQ, the assay gave nd, nd, nd, nd, nd, nd (controls 0 of 18).
For GDDLQEYGIS / VIYADGLRTAYGNSVK / GGSNGLMTV, the assay gave nd, nd, nd, nd, nd, nd (controls 0 of 18).

The 3 strongest on average among those seen in every replicate, once more:

{"CDR-H1": "GFDLNEYGIS", "CDR-H2": "VIYADGVRTAYADSVK", "CDR-H3": "GNAAGTFDV", "log10 Kd (nM) by replicate": "-1.27, -0.63, -0.64, -1.39, -1.18, 0.00", "mean log10 Kd (nM)": "-0.85", "signal with controls": "0 of 18"}
{"CDR-H1": "GFDLNEYGIS", "CDR-H2": "VIYADGQRTFYSDSVK", "CDR-H3": "GEIAGTFDS", "log10 Kd (nM) by replicate": "-0.72, -0.77, -0.94, -0.98, -1.00, -0.62", "mean log10 Kd (nM)": "-0.84", "signal with controls": "0 of 18"}
{"CDR-H1": "GFDLNEYGIS", "CDR-H2": "VIYADGMRTAYADNVK", "CDR-H3": "GEVAGTFDT", "log10 Kd (nM) by replicate": "-0.63, -0.46, -0.59, -0.56, -0.87, -0.44", "mean log10 Kd (nM)": "-0.59", "signal with controls": "0 of 18"}

Of ten entries with the parent sequence, four were seen in most replicates (averages 0.34 to 2.37), three in one and three in none, so single entries are noisy. The authors averaged sequences with at least three values out of six and counted those with two or fewer as poor binders. The range of this assay differs from that of the first round, and the authors advise against merging the two. Background: pairings of all heavy chain designs with three empty control strains gave a value in 1% of cases (median 2.08, 5th percentile 0.84). Values in that range, when seen in few replicates, are hard to tell from nonspecific mating. Also given: how often the same scFv was detected with the empty control strains.